From publication PMC6117412, “Comprehensive Study of the Enzymatic Catalysis of the Electrochemical Oxygen Reduction Reaction (ORR) by Immobilized Copper Efflux Oxidase (CueO) From Escherichia coli” (Frontiers in Chemistry, 2018)

Protein sequences, listed by entry. Tags and fused reporters are not part of them. Residues count along the entry.
UniProt P36649, 29-516 limits assumed: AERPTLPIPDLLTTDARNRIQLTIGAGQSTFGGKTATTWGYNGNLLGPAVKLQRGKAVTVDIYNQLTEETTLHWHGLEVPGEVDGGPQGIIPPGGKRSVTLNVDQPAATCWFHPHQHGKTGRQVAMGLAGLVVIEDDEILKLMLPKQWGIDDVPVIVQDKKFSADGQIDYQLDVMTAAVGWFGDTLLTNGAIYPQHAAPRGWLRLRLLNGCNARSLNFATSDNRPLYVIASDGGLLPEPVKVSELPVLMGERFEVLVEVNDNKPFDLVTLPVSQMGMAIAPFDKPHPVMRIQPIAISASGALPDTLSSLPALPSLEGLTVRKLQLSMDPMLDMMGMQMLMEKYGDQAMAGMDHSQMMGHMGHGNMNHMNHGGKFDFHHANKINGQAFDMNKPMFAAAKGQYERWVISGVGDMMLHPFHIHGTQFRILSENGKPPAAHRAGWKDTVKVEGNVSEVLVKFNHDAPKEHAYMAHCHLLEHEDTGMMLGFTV

Target: CueO (copper efflux oxidase) (Escherichia coli, UniProt P36649)
Assay: cyclic voltammetry of electrocatalytic O2 reduction
Conditions: immobilised on cysteamine-modified polycrystalline Au; O2-saturated phosphate buffer pH 6.5; 100 mM NaN3; direct electron transfer

For `[N-]=[N+]=N`, the “cyclic voltammetry of electrocatalytic O2 reduction” value was “F− and N3- behave as inhibitors of the catalytic ORR suppressing the activity of CueO”.
